From patent publication US7741341B2, “Benzimidazole-derivatives as factor Xa inhibitors” (sanofi-aventis Deutschland GmbH, priority 2003, dated 2010)

Amino acid sequences for entries named in this document (tags omitted). Residues count along the entry.
UniProt P00742, 235-488 limits assumed: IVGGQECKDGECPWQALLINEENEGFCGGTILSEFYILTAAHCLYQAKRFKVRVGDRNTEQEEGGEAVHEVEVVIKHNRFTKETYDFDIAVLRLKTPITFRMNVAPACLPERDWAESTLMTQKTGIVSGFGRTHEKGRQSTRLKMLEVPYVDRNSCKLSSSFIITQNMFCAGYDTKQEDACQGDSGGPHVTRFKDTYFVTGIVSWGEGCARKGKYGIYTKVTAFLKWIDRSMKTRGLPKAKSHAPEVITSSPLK
UniProt P00742, 41-179 partner limits assumed: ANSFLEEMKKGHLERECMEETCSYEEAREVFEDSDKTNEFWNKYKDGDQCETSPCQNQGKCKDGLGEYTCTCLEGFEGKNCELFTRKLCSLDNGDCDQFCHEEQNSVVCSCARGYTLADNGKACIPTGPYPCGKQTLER

These compounds were tested against human factor Xa (Homo sapiens, UniProt P00742) (assay: Factor Xa assay (chromogenic, substrate S-2765)). Settings: read-out: Ki(FXa); inhibition constant for factor Xa; purified enzyme 0.5 nM, substrate S-2765 140 μM, 25° C.; Ki calculated from IC50.
Type: biochemical

**Q.** CC(C)N1CCC(NC(=O)c2nc3csc(C(=O)O)c3n2CC(=O)Nc2ccc(Cl)cn2)CC1 was tested. Which Ki did it give?
**A.** 88500 nM

**Q.** How did the Ki turn out when CC(C)N1CCC(NC(=O)c2nc3c(C(=O)O)scc3n2Cc2cc(-c3ccc(Cl)s3)on2)CC1 was run?
**A.** 5 nM

**Q.** CC(C)N1CCC(NC(=O)c2nc3cc(S(=O)(=O)CCO)ccc3n2CC(=O)Nc2ccc(Cl)cn2)CC1 was tested. Which Ki did it give?
**A.** 70 nM

**Q.** How did the Ki turn out when CC(C)N1CCC(NC(=O)c2nc3c(C(=O)O)cccc3n2CCc2ccc(Cl)cc2)CC1 was run?
**A.** 64 nM

**Q.** With CC(C)N1CCC(NC(=O)c2nc3c(C(=O)O)scc3n2CC(=O)Nc2ccc(Cl)cn2)CC1 as the compound, how does the Ki read?
**A.** 22 nM

**Q.** O=C(O)c1ccc2c(c1)nc(C(=O)NC1CCN(C3CC3)CC1)n2Cc1cc(-c2ccc(Cl)s2)no1 was tested. Which Ki did it give?
**A.** 22 nM

**Q.** COc1cccc(Cn2c(C(=O)NC3CCN(C(C)C)CC3)nc3c(C(=O)O)cccc32)c1 was tested. Which Ki did it give?
**A.** 558 nM

**Q.** For Cc1cc(C(=O)O)cc2nc(C(=O)NC3CCN(C4CC4)CC3)n(Cc3cc(-c4ccc(Cl)s4)on3)c12, which Ki is on record?
**A.** 0.8 nM

**Q.** With CC(C)N1CCC(NC(=O)c2nc3ccc(S(=O)(=O)CCO)cc3n2CC(=O)Nc2ccc(Cl)cn2)CC1 as the compound, how does the Ki read?
**A.** 226 nM

**Q.** For O=C(O)c1ccc2nc(C(=O)NC3CCN(C4CC4)CC3)n(Cc3cc(-c4ccc(Cl)s4)no3)c2c1, which Ki is on record?
**A.** 188 nM

**Q.** Which Ki does the source give for O=C(O)c1cccc2c1nc(C(=O)NC1CCN(C3CC3)CC1)n2Cc1cc(-c2ccc(Cl)s2)on1 here?
**A.** 30.5 nM
